Measurements from patent US4882359A, “Azacycloalkane derivatives, absorption promoters containing the derivatives as the effective ingredient and external preparations containing the absorption promoters” (priority 1986, dated 1989).

Test: Skin penetration of pindolol from test solution, diffusion cell method
Format: in vitro ADME, female hairless mice
Conditions: 3.0 wt.% test compound, pindolol 0.4 wt.% in ethanol/water

Pyrrolidone carboxylic acid [Pyrolidone carbonic acid]
Cumulative amount of pindolol permeated, 24 hrs later (24 hrs): 1.0 ± 0.0 µM
Cumulative amount of pindolol permeated, 48 hrs later (48 hrs): 1.9 ± 0.1 µM
